Experiment: Pharmacokinetic study in rats after oral administration of SYD extract and its single and combined TCM extracts (UPLC-MS/MS of plasma)
Settings: n = 6
[1] = rat plasma, oral LJ + SN + AS extract 5.43 g/kg
[2] = rat plasma, oral LJ + SN + GU extract 4.73 g/kg
[3] = rat plasma, oral LJ + SN extract
[4] = rat plasma, oral SN + AS + GU extract 4.28 g/kg
[5] = rat plasma, oral SN + AS extract
[6] = rat plasma, oral SN + GU extract
[7] = rat plasma, oral SN extract 2.49 g/kg
[8] = rat plasma, oral SYD extract 8.25 g/kg

harpagide
AUC(0–t) [1]: 1.58 ± 0.19 µg·h/mL
AUC(0–∞) [1]: 2.62 ± 1.83 µg·h/mL
Cmax [1]: 0.60 ± 0.12 µg/mL
MRT(0–t) [1]: 4.82 ± 0.56 h
MRT(0–∞) [1]: 52.09 ± 101.60 h
Tmax [1]: 1.58 ± 0.20 h
t1/2 [1]: 6.30 ± 0.99 h
AUC(0–t) [2]: 1.45 ± 0.26 µg·h/mL
AUC(0–∞) [2]: 2.67 ± 1.81 µg·h/mL
Cmax [2]: 0.62 ± 0.11 µg/mL
MRT(0–t) [2]: 5.12 ± 0.59 h
MRT(0–∞) [2]: 62.09 ± 10.74 h
Tmax [2]: 1.58 ± 0.20 h
t1/2 [2]: 8.34 ± 1.93 h
AUC(0–t) [3]: 1.41 ± 0.17 µg·h/mL
AUC(0–∞) [3]: 2.50 ± 1.86 µg·h/mL
Cmax [3]: 0.59 ± 0.11 µg/mL
MRT(0–t) [3]: 5.18 ± 0.19 h
MRT(0–∞) [3]: 55.30 ± 10.97 h
Tmax [3]: 1.17 ± 0.26 h
t1/2 [3]: 7.14 ± 0.84 h
AUC(0–t) [4]: 1.72 ± 0.22 µg·h/mL
AUC(0–∞) [4]: 2.76 ± 1.82 µg·h/mL
Cmax [4]: 0.75 ± 0.15 µg/mL
MRT(0–t) [4]: 4.58 ± 0.49 h
MRT(0–∞) [4]: 50.90 ± 99.45 h
Tmax [4]: 1.67 ± 0.26 h
t1/2 [4]: 7.12 ± 2.34 h
AUC(0–t) [5]: 1.61 ± 0.33 µg·h/mL
AUC(0–∞) [5]: 2.76 ± 1.69 µg·h/mL
Cmax [5]: 0.55 ± 0.15 µg/mL
MRT(0–t) [5]: 5.17 ± 0.62 h
MRT(0–∞) [5]: 58.81 ± 10.17 h
Tmax [5]: 1.67 ± 0.41 h
t1/2 [5]: 7.93 ± 2.55 h
AUC(0–t) [6]: 1.16 ± 0.15 µg·h/mL
AUC(0–∞) [6]: 2.39 ± 1.85 µg·h/mL
Cmax [6]: 0.35 ± 0.12 µg/mL
MRT(0–t) [6]: 5.98 ± 0.42 h
MRT(0–∞) [6]: 65.43 ± 10.77 h
Tmax [6]: 1.42 ± 0.38 h
t1/2 [6]: 8.79 ± 2.77 h
AUC(0–t) [7]: 2.77 ± 0.34 µg·h/mL
AUC(0–∞) [7]: 2.94 ± 0.37 µg·h/mL
Cmax [7]: 1.12 ± 0.12 µg/mL
MRT(0–t) [7]: 4.26 ± 0.46 h
MRT(0–∞) [7]: 6.39 ± 2.61 h
Tmax [7]: 1.00 ± 0.00 h
t1/2 [7]: 6.70 ± 2.94 h
AUC(0–t) [8]: 1.57 ± 0.25 µg·h/mL
AUC(0–∞) [8]: 2.61 ± 1.73 µg·h/mL
Cmax [8]: 0.67 ± 0.16 µg/mL
MRT(0–t) [8]: 4.92 ± 0.56 h
Tmax [8]: 2.00 ± 0.00 h
t1/2 [8]: 7.72 ± 1.78 h

COC(=O)C1=CO[C@@H](O[C@@H]2O[C@H](CO)[C@@H](O)[C@H](O)[C@H]2O)[C@@H]2[C@@H](C)[C@@H](O)C[C@H]12 [Loganin, loganin]
Tmax (male, Sprague-Dawley, rat, plasma, po, 8.25 g/kg, Tmax, oral SYD extract 8.25 g/kg): 1.42 ± 0.38 h

C[C@]1(OC(=O)/C=C/c2ccccc2)C[C@@H](O)[C@]2(O)C=CO[C@@H](O[C@@H]3O[C@H](CO)[C@@H](O)[C@H](O)[C@H]3O)[C@@H]21 [Harpagoside, harpagoside]
Tmax (male, Sprague-Dawley, rat, plasma, po, 3.98 g·kg^−1, Tmax, oral SN + AS extract): 1.42 ± 0.38 h
Tmax (male, Sprague-Dawley, rat, plasma, po, 4.5 g·kg^−1 (extract), Tmax, oral LJ + SN extract): 1.67 ± 0.41 h

— paper PMC6150365, “Simultaneous Determination of Seven Components in Rat Plasma by the UPLC-MS/MS Method and Application of Pharmacokinetic Studies to SimiaoYong’an Decoction” (Molecules : A Journal of Synthetic Chemistry and Natural …, 2017)
